Values of other authors as cited in patent US11512353B2, “Method to predict response to neuropsychiatric drugs using variation in the serotonin 7 receptor (HTR7) gene” (The Regents of the University of California, priority 2018, dated 2022).

The chains behind the UniProt entries cited, without tags or fusion partners.
UniProt P23975, whole entry, species assumed: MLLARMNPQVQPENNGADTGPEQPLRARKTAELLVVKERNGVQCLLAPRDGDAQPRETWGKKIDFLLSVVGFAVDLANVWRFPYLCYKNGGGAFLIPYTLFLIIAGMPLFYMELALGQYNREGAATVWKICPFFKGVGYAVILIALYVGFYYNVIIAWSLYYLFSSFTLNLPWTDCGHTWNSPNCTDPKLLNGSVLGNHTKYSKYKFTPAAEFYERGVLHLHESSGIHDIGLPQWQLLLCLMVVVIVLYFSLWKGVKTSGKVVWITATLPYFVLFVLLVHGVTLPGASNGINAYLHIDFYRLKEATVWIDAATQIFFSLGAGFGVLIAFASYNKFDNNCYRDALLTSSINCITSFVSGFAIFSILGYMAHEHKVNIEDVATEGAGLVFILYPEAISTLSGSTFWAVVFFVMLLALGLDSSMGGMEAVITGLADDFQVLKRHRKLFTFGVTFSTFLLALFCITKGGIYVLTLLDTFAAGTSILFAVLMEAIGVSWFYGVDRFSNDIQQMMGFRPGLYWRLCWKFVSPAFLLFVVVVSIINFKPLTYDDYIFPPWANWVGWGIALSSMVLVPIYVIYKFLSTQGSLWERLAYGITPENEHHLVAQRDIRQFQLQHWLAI

Target: norepinephrine transporter (Homo sapiens, UniProt P23975)
Conditions: cited from earlier work

## CNCCC=C1c2ccccc2CCc2ccccc21 [Nortriptyline, Nortyptiline]
  affinity to norepinephrine transporter relative to serotonin transporter: a hundred times higher affinity
